The text below walks through data of paper PMC5177531 (ACS chemical neuroscience, 2016).

By UniProt entry, the sequences of proteins in these tests, tags left out. Residues count along the entry.
UniProt P42866, 99-386 limits assumed: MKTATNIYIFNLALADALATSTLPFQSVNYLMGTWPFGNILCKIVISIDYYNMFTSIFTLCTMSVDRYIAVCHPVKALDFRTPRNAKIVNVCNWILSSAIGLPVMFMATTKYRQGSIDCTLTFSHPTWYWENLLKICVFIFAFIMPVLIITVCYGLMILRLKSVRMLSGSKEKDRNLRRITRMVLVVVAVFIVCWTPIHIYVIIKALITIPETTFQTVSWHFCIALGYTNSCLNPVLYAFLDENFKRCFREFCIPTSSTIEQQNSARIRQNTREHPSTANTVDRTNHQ
UniProt P42866, whole entry: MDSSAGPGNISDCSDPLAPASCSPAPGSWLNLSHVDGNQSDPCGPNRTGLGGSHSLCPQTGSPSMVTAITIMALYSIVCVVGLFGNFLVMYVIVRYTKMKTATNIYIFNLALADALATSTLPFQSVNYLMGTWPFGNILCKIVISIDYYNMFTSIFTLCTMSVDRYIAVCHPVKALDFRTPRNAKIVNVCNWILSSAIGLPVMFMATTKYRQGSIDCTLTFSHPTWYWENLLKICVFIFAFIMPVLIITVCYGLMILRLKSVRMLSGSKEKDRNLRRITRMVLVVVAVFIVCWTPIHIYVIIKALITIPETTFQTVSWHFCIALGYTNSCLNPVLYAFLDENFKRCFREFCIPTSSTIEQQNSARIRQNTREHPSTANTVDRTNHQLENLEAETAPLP
UniProt P32300, whole entry: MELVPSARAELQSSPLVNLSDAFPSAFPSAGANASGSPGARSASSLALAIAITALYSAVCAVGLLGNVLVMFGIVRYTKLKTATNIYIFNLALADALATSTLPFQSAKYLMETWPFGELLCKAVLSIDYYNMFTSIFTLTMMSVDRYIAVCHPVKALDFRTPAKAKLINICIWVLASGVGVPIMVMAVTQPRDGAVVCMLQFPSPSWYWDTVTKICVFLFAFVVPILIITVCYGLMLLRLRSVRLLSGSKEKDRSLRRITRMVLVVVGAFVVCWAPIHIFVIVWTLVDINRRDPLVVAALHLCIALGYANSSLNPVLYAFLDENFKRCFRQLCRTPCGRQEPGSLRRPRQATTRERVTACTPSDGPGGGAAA

One test addresses 6TM/E11 (Mus musculus, UniProt P42866). Description: Competition binding versus 125I-IBNtxA at the 6TM-containing.
Test [1] has as its target 125I-IDAPP binding sites in C57/Bl6 brain homogenates (Mus musculus, UniProt P42866).
Another test deals with mDOR-1 (Mus musculus, UniProt P32300). Description: Competition binding versus 125I-IBNtxA in mDOR-CHO membranes.
The next test relates to MOR-1 variants (Oprm1). To be noted: mouse, in vivo; cited from earlier work.

For the compound `CC[C@H](C)[C@H](NC(=O)[C@H](Cc1ccccc1)NC(=O)[C@H](Cc1ccccc1)NC(=O)[C@@H](C)NC(=O)[C@@H](N)Cc1c(C)cc(O)cc1C)C(N)=O` [DAPPI, Dmt-D-Ala-Phe-Phe-Ile-NH2], the affinity on 6TM/E11, expressed as Ki, was 45 ± 11 nM.
As for `CCC(=O)C(CC(C)N(C)C)(c1ccccc1)c1ccccc1` (stereo not shown) [Methadone], the “Hill Slope” value in test [1] is −0.7 ± 0.1.
Consider `CC(C)[C@H](NC(=O)[C@H](Cc1ccccc1)NC(=O)[C@H](Cc1ccccc1)NC(=O)[C@@H](C)NC(=O)[C@@H](N)Cc1ccc(O)cc1)C(N)=O` [TAPPV, Tyr-D-Ala-Phe-Phe-Val-NH2], for which, at mDOR-1, affinity was put at a Ki of 426 ± 23 nM.
Take Buprenorphine: in the test on MOR-1 variants (Oprm1), the “MOR-1 Variants required for analgesia” value is reported as 7TM + 6TM.

By Ki is commonly meant the dissociation constant of the complex between target and ligand, obtained from inhibition or displacement. A lower Ki goes with a stronger hold on the target.
